Measured values reported in PMC10331583, “Control of fibrosis with enhanced safety via asymmetric inhibition of prolyl‐tRNA synthetase 1” (EMBO Molecular Medicine, 2023).
Read-outs that look alike come from different tables or passages of the source.

Key:
[1] = test system: PARS1 heterodimer (WT/MT; MT, PARS1 FA/EA/RL)
[2] = WT/WT, ATP as varied substrate, average of 3 experiments
[3] = PARS1: WT/WT, mean of experiments
[4] = PARS1: WT/MT, mean of experiments

Row | Structure (SMILES) | Km (PARS1 homodimer (WT/WT); [2]) [µM] | Vmax (PARS1 homodimer (WT/WT); [2]) [µM/s] | kcat (PARS1 homodimer (WT/WT); [2]) [s⁻¹] | Km (PARS1 homodimer (WT/WT); [3]) [µM] | kcat (PARS1 homodimer (WT/WT); [3]) [s⁻¹] | Vmax (PARS1 homodimer (WT/WT); WT/WT, Average of 4 experiments) [µM/s] | Km [1, 4] [µM] | kcat [1, 4] [s⁻¹] | Vmax ([1]; WT/MT, Average of 4 experiments) [µM/s]
1 | Nc1ncnc2c1ncn2[C@@H]1O[C@H](COP(=O)(O)OP(=O)(O)OP(=O)(O)O)[C@@H](O)[C@H]1O [ATP] | 371 | 0.000459 | 0.0153 |  |  |  |  |  | 
2 | O=C(O)[C@@H]1CCCN1 [Proline, proline] |  |  |  | 31.1 | 0.0278 | 0.000835 | 53.1 | 0.0217 | 0.000651
